According to patent publication US9850293B2, “Targeting trastuzumab-resistant HER2+ breast cancer with a HER3-targeting nanoparticle” (priority 2014, dated 2017):

Experiments:
JIMT-1 tumors = assay: Trastuzumab-resistant tumor growth in vivo; design: species or system mouse; conditions: 0.004 mg Dox/kg/injection, twice-weekly IV
Method: (§1) Tumor volumes were measured by calipers. Day 0 corresponds to first day of treatment. N=10 tumors per treatment.
as §1
(§2) The efficacy of HerDox was also examined on a cell line with pre-existing resistance.
(§3) The contribution of HER3 to targeted toxicity was evaluated by assessing whether pre-adsorbing HerDox with a peptide comprising the ligand-binding domain of HER3 blocked cytotoxicity.

[1] = system: BT474 Tz-resistant tumors; assay: Tumor growth in vivo, HerGa; design: species or system mouse; conditions: intravenous
Method: N=3. *, p<0.05 compared to parental. […] N=3. […] N=3. […] Tumor volumes were measured by calipers. Day 0 corresponds to first day of treatment. N=10 tumors per treatment. […] Tumor volumes were measured by calipers. Day 0 corresponds to first day of treatment. N=10 tumors per treatment.

HER2+ tumor = assay: Biodistribution of labeled HerPBK10, Tz and BSA; assay type: in vivo, mouse; conditions: tail vein, four hours after injection
Method: (§4) (A) compares biodistribution and intracellular trafficking of HerPBK10 and Tz.
Fluorescently-labeled HerPBK10 was prepared to assess its bio-distribution and cell uptake in comparison to labeled Tz. Equivalent doses of each reagent were injected into the tail veins of HER2+ tumor bearing mice. Tissues were harvested at four hours after injection for imaging. Both reagents were compared to a labeled non-targeted protein, BSA.

[2] = system: SKBR3 trastuzumab-resistant cells; assay: Tumor cell killing in culture; assay type: cell-based, human; conditions: 48-72 h after treatment
Method: (§5) FIG. 21 depicts graph that show the results of the administration of HerDox on various cells. […] N=3. *=p<0.05 compared to parental. […] N=3.
(§6) N=3. *, p<0.05 compared to parental. […] N=3. […] Parental and resistant cell lines were treated with HerDox−/+HER3 blocking peptide (ErbB3 human; Prospec), and tested for cell survival 48 hours later. […] Treatments were compared to mock (saline)-treatment. […] N=3. *, p<0.05 compared to parental. […] N=3.
Each therapeutic was administered at concentration ranges previously established for eliciting therapeutic efficacy.
Each therapeutic was administered at concentration ranges previously established or known in the art for eliciting therapeutic efficacy.

SKBR3 parental cells = assay: Tumor cell killing in culture; assay type: cell-based, human; conditions: 48-72 h after treatment
Method: as §5, §6
(§7) Parental cell lines were pre-treated with 0.5 mg/mL Tz for 24 hours before testing these cells for surface HER3 levels. […] Parental cell lines were pre-treated with 0.5 mg/mL Tz for 24 hours before testing these cells for HerPBK10 binding. […] SKBR3 Parental cells were treated with Tz at indicated concentrations (see upper X-axes) 4 and 24 hours before HerDox treatment and assayed for survival at 48-72 h after treatment. N=3. […] SK-474 Parental cells were treated with Tz at indicated concentrations (see upper X-axes) 4 and 24 hours before HerDox treatment and assayed for survival at 48-72 h after treatment. N=3. […] MDA-MB-435 non-resistant cells were treated with Tz at indicated concentrations (see upper X-axes) 4 and 24 hours before HerDox treatment and assayed for survival at 48-72 h after treatment. N=3. […]

JIMT-1 cell line = assay: Tumor cell killing in culture, pre-existing resistance; assay type: cell-based, human; conditions: broad concentration range
Method: N=3. *, p<0.05 compared to parental. […] N=3. […] Treatments were compared to mock (saline)-treatment. […] N=3. *, p<0.05 compared to parental. […] N=3.
as §2, §3

BT474 parental cells = assay: Tumor cell killing in culture; assay type: cell-based, human; conditions: parental BT474, 48-72 h after treatment
Method: as §5, §6, §7
(§8) N=3. *, p<0.05 compared to parental. […] Tumor volumes were measured by calipers. […] Tumor volumes were measured by calipers. […]

[3] = system: BT474 trastuzumab-resistant cells; assay: Tumor cell killing in culture; conditions: 48-72 h after treatment
Method: as §5, §6, §7, §8

HER2+ MDA-MB-435 cells = assay: Cell uptake (fluorescence confocal microscopy); assay type: cell-based, human; conditions: up to two hours after cell binding
Method: as §4
The uptake in HER2+ MDA-MB-435 cells were also evaluated.

[4] = system: Tz+Lp-resistant BT474 cells; assay: Tumor cell killing in culture; assay type: cell-based, human

Trastuzumab: monoclonal antibody that interferes with the HER2/neu receptor [reference compound]
effect on JIMT-1 tumor growth (JIMT-1 tumors): only slight | size of tumors that became resistant to Tz treatment in vivo [1]: started to grow in size despite therapeutic doses of Tz | delivery to liver, lung, and kidney (HER2+ tumor): higher for Tz than HerPBK10 | delivery to the heart, spleen, and muscle (HER2+ tumor): nearly absent delivery | tumor accumulation (HER2+ tumor): equivalent levels of tumor accumulation | response of SKBR3 resistant cells [2]: little response | response of parental SKBR3 cells (SKBR3 parental cells): little response | response of JIMT-1 cells (JIMT-1 cell line): remained unresponsive | reduction of cell survival (BT474 parental cells): 50% | effect on BT474 resistant cells [3]: ineffective | cell surface binding and uptake pattern (HER2+ MDA-MB-435 cells): sparse binding on the cell surface that remained in sparsely punctate areas on the cells up to two hours after cell binding | effect on Tz+Lp-resistant BT474 cells [4]: no efficacy
